Results taken from patent US20190365774A1, “COMBINATION THERAPY OF BACE-1 INHIBITOR AND ANTI-N3PGLU ABETA ANTIBODY” (Eli Lilly and Company, priority 2016, published 2019).

B1: Antibody I: anti-N3pGlu Abeta antibody, light chain SEQ ID NO: 12 and heavy chain SEQ ID NO: 11 (antibody)
heavy: QVQLVQSGAEVKKPGSSVKVSCKASGYTFTDYYINWVRQAPGQGLEWMGWINPGSGNTKYNEKFKGRVTITADESTSTAYMELSSLRSEDTAVYYCTREGETVYWGQGTLVTVSSASTKGPSVFPLAPSSKSTSGGTAALGCLVKDYFPEPVTVSWNSGALTSGVHTFPAVLQSSGLYSLSSVVTVPSSSLGTQTYICNVNHKPSNTKVDKKV[sequence of human IgG1 Fc not given]
light: DVVMTQSPLSLPVTLGQPASISCKSSQSLLYSRGKTYLNWFQQRPGQSPRRLIYDVSKLDSGVPDRFSGSGSGTDFTLKISRVEAEDVGVYYCVQGTHYPFTFGQGTKLEIKRTVAAPSVFIFPPSDEQLKSGTASVVCLLNNFYPREAKVQWKVDNALQSGNSQESVTEQDSKDSTYSLSSTLTLSKADYEKHKVYACEVTHQGLSSPVTKSFNRGEC
B2: Antibody II: anti-N3pGlu Abeta antibody, light chain SEQ ID NO: 13 and heavy chain SEQ ID NO: 11 (antibody)
heavy: B1 heavy
light: DIQMTQSPSTLSASVGDRVTITCKSSQSLLYSRGKTYLNWLQQKPGKAPKLLIYAVSKLDSGVPSRFSGSGSGTEFTLTISSLQPDDFATYYCVQGTHYPFTFGQGTKLEIKRTVAAPSVFIFPPSDEQLKSGTASVVCLLNNFYPREAKVQWKVDNALQSGNSQESVTEQDSKDSTYSLSSTLTLSKADYEKHKVYACEVTHQGLSSPVTKSFNRGEC

Test system: deposited Aβ
Assay: Ex vivo target engagement, immunohistochemistry on fixed PDAPP brain sections
Format: binding
Conditions: brain sections from aged PDAPP mice (25-month old), 20 μg/mL antibody
Source text: Secondary HRP reagents specific for human IgG are employed and the deposited plaques are visualized with DAB-Plus (DAKO). Biotinylated murine 3D6 antibody followed by Step-HRP secondary is used as a positive control.

Molecule	labeling of deposited Aβ in PDAPP hippocampus
B1	labeled a subset of deposits
B2	labeled a subset of deposits
